The source of these data is patent US4743541A, “Luminescent substrate preparation and its use in specific binding assays” (priority 1985, dated 1988).

Entries after “also recorded” stand apart in the source; their conditions may differ.

For this experiment, the target named is T1, horseradish peroxidase (HRP) (Armoracia rusticana, UniProt P00433).
T1 sequence (P00433 31-353): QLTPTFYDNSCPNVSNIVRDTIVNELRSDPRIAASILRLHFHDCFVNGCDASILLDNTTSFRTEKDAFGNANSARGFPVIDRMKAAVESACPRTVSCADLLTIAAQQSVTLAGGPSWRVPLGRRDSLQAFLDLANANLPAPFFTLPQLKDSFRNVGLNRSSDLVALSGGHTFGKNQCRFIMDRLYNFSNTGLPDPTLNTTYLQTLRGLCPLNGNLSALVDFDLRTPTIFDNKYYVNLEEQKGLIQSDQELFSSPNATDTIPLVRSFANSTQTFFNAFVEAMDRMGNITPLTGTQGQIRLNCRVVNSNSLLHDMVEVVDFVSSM
Put plainly: Standardized test procedure for measuring luminol light output (HRP-catalyzed luminol/H2O2 reaction). It is filed as biochemical. To be noted: relative to untreated commercial luminol; listed as luminol preparation. The method, then:
A standardized test procedure for measuring luminol light output has been established. To 0.5 ml of 50 mM borate buffer, pH 9.4, are added 0.5 ml of 40 mM luminol in 45 mM NaOH, pH 11.0; 0.5 ml of 4 mM hydrogen peroxide in 0.01M phosphate buffered saline (PBS), pH 7.0; 0.4 ml of deionized water; and 0.1 ml of 200 mU/ml horseradish peroxidase (HRP) to yield a final 2.0 ml volume containing; 10 mM luminol; 1 mM H2 O2; 12.5 mM borate buffer, pH 9.4; and 20 mU HRP in an aqueous solution having a final pH of 9.4. The enzyme HRP is added last, the solution mixed and relative intensity readings taken on an Ames Fluorocolorimeter (Miles Labs, Inc., Elkhart, IN) at various time points from 1 minute to 2 hours.
The following table, Table I, illustrates the light output for luminol prepared by repeating the treatment procedure one to four times, compared to untreated luminol. Increasing the number of treatment sequences performed results in a continuing increase in the unit light intensity output of the activated luminol when tested in the standardized testing procedure. […] With this information, it is possible for the user of luminol to begin the recording of the reaction at any time during which the light intensity remains constant.

As for `Nc1cccc2c(=O)[nH][nH]c(=O)c12` [Activated Luminol], the “Unit light output compared with commercially available, untreated luminol” value is reported as “about at least a factor of ten; also recorded: approximately ten times greater; also recorded: substantially greater”.
